One assay concerns the target T1, CRF2R (Homo sapiens, UniProt Q13324).
T1 sequence (Q13324 1-411): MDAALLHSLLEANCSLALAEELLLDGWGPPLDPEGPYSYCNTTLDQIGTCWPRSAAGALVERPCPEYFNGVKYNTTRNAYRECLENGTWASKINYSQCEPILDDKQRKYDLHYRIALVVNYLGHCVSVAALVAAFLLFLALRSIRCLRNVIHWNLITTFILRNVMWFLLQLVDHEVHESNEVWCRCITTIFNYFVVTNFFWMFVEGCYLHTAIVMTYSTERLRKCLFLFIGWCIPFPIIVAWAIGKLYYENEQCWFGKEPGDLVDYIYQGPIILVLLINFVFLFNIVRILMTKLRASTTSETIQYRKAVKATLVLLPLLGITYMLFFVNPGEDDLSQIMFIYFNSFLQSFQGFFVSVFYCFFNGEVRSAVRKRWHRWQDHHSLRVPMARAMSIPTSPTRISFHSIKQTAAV
Kind of assay: CRF2R agonist activity (EC50, Emax), called comparative CRF binding. Format: cell-based. An excerpt: (§1) The pharmacological activity and selectivity of the peptides of present invention can be determined using published test procedures. See, e.g, U.S. patent application Ser. No. 09/799,978. Because CRF2R and CRF1R are homologous proteins, it is expected that a certain proportion of agonists for CRF2R will also function as agonists of CRF1R. As discussed above, activation of CRF1R induces activation of the HPA axis since increased corticosteroid production leads to skeletal muscle atrophy. In most cases in which an increase in muscle mass or function is desired, it is not desirable to activate the HPA axis.
(§2) Because it is desirable to discriminate binding between CRF2R, as compared with CRF1R, the assays described above may be conducted using a cell, or membrane from a cell, which expresses only CRF2R or the assays can be conducted with a recombinant source of CRF2R. Cells expressing both forms of CRFR may be modified using homologous recombination to inactivate or otherwise disable the CRF1R gene. Alternatively, if the source of CRFR contains more than one CRFR type, the background signal produced by the receptor which is not of interest must be subtracted from the signal obtained in the assay. […] Known antagonists of CRFRs include, but, are not limited to, antalarmin (CRF1R selective), antisauvagine-30 (CRF2R selective) and astressin (nonselective for CRF1R/CRF2R).
(§3) Cell-based assays include the steps of contacting cells which express CRF1R or CRF2R with a peptide of the present invention or control and measuring activation of the CRFR by measuring the expression or activity of components of the CRFR signal transduction pathways.
(§4) As described in the background section above, CRFRs appear to couple through several different pathways including Gαs, Gαq or Gαi, depending upon the cell type. It is thought that agonist activation of CRFR allows the receptor to signal via any of these pathways, provided that the necessary pathway components are present in the particular cell type. Thus, to assay a particular peptide of the present invention for CRFR activation, an assay can use any of the signal transduction pathways as the readout even if the relevant cell type for treatment, in vivo, couples CRFR to skeletal muscle atrophy via a different pathway. […] Assays for measuring activation of these signaling pathways are known in the art.
(§5) For example, after contact with a peptide of the present invention, lysates of the cells can be prepared and assayed for induction of cAMP. cAMP is induced in response to Gαs activation. Because Gαs is activated by receptors other than CRFR and because a test peptide may be exerting its effect through CRFRs or by another mechanism, two control comparisons are relevant for determining whether the peptide increases levels of cAMP via activation of a CRFR. One control compares the cAMP level of cells contacted with the peptide and the cAMP level of cells contacted with a control compound (i.e., the vehicle in which the peptide is dissolved).
(§6) In one example, cAMP induction is measured with the use of DNA constructs containing the cAMP responsive element linked to any of a variety of reporter genes can be introduced into cells expressing CRFRs. Such reporter genes include, but are not limited to, chloramphenicol acetyltransferase (CAT), luciferase, glucuronide synthetase, growth hormone, fluorescent proteins (e.g., Green Fluorescent Protein), or alkaline phosphatase. Following exposure of the cells to the peptide, the level of reporter gene expression can be quantitated to determine the peptide's ability to increase cAMP levels and thus determine the peptide's ability to activate the CRFR.
(§7) In addition to using cells expressing full length CRFRs, cells can be engineered which express CRFRs containing the ligand binding domain of the receptor coupled to, or physically modified to contain, reporter elements or to interact with signaling proteins.

In another assay the target is T2, CRF1R (Homo sapiens, UniProt P34998).
T2 sequence (P34998 24-415): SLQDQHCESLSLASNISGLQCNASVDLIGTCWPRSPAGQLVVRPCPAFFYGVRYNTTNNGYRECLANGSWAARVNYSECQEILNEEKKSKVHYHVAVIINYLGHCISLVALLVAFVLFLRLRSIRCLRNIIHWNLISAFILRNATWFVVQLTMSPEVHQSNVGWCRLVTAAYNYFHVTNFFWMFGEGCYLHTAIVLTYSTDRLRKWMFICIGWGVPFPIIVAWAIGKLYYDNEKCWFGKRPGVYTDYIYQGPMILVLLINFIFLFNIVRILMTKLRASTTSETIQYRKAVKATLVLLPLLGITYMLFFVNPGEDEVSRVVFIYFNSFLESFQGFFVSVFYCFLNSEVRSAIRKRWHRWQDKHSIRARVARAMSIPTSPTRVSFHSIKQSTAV
Kind of assay: CRF1R agonist activity (EC50, Emax), called comparative CRF binding. The assay is classed as cell-based.
From the text: as §1, §2, §3, §4, §5, §6, §7

One may read the EC50 as the concentration at which the effect is half-maximal. As to `CC[C@H](C)[C@H](NC(=O)[C@H](CCC(=O)O)NC(=O)[C@@H](NC(=O)[C@H](CCSC)NC(=O)[C@H](CCCCN)NC(=O)[C@H](CCCNC(=N)N)NC(=O)[C@H](CC(C)C)NC(=O)[C@H](CC(C)C)NC(=O)[C@H](CCC(N)=O)NC(=O)[C@H](Cc1ccccc1)NC(=O)[C@@H]1CCCN1C(=O)[C@H](CC(C)C)NC(=O)[C@H](CC(=O)O)NC(=O)[C@@H](NC(=O)[C@H](CO)NC(=O)[C@@H](NC(=O)[C@@H]1CCCN1C(=O)[C@@H]1CCCN1C(=O)CNC(=O)[C@@H]1CCC(=O)N1)[C@@H](C)CC)[C@@H](C)CC)[C@@H](C)CC)C(=O)N[C@@H](CCC(=O)O)C(=O)N[C@@H](CCCCN)C(=O)N[C@@H](CCC(N)=O)C(=O)N[C@@H](CCC(=O)O)C(=O)N[C@@H](CCCCN)C(=O)N[C@@H](CCC(=O)O)C(=O)N[C@@H](CCCCN)C(=O)N[C@@H](CCC(N)=O)C(=O)N[C@@H](CCC(N)=O)C(=O)N[C@@H](C)C(=O)N[C@H](C(=O)N[C@H](C(=O)N[C@@H](CC(N)=O)C(=O)N[C@@H](CCCNC(=N)N)C(=O)N[C@@H](CC(C)C)C(=O)N[C@@H](CC(C)C)C(=O)N[C@@H](CC(C)C)C(=O)N[C@@H](CC(=O)O)C(=O)N[C@@H](CCCNC(=N)N)C(=O)N[C@H](C(N)=O)C(C)C)[C@@H](C)O)[C@@H](C)O` [compound 18], the results for the EC50 on CRF2R and on CRF1R were 0.00529 µM and 0.106 µM, respectively.
The corresponding values for `CC[C@H](C)[C@H](NC(=O)[C@H](CCC(=O)O)NC(=O)[C@@H](NC(=O)[C@H](CCSC)NC(=O)[C@H](CCCCN)NC(=O)[C@H](CCCNC(=N)N)NC(=O)[C@H](CC(C)C)NC(=O)[C@H](CC(C)C)NC(=O)[C@H](CCC(N)=O)NC(=O)[C@H](Cc1ccccc1)NC(=O)[C@@H]1CCCN1C(=O)[C@H](CC(C)C)NC(=O)[C@H](CC(=O)O)NC(=O)[C@@H](NC(=O)[C@H](CO)NC(=O)[C@@H](NC(=O)[C@@H]1CCCN1C(=O)[C@@H]1CCCN1C(=O)CNC(=O)[C@@H]1CCC(=O)N1)[C@@H](C)CC)[C@@H](C)CC)[C@@H](C)CC)C(=O)N[C@@H](CCC(=O)O)C(=O)N[C@@H](CCCCN)C(=O)N[C@@H](CCC(N)=O)C(=O)N[C@@H](CCC(=O)O)C(=O)N[C@@H](CCCCN)C(=O)N[C@@H](CCC(=O)O)C(=O)N[C@@H](CCCCN)C(=O)N[C@@H](CCC(N)=O)C(=O)N[C@@H](CCC(N)=O)C(=O)N[C@@H](C)C(=O)N[C@H](C(=O)N[C@H](C(=O)N[C@@H](CC(N)=O)C(=O)N[C@@H](C)C(=O)N[C@@H](CCCNC(=N)N)C(=O)N[C@@H](CC(C)C)C(=O)N[C@@H](CC(C)C)C(=O)N[C@@H](CC(=O)O)C(=O)N[C@H](C(=O)N[C@H](C(N)=O)C(C)C)[C@@H](C)O)[C@@H](C)O)[C@@H](C)O` [compound 20] are 0.00781 µM and 0.906 µM.
Take `CC[C@H](C)[C@H](NC(=O)[C@H](CCC(=O)O)NC(=O)[C@@H](NC(=O)[C@H](CCSC)NC(=O)[C@H](CCCCN)NC(=O)[C@H](CCCNC(=N)N)NC(=O)[C@H](CC(C)C)NC(=O)[C@H](CC(C)C)NC(=O)[C@H](CCC(N)=O)NC(=O)[C@H](Cc1ccccc1)NC(=O)[C@@H]1CCCN1C(=O)[C@H](CC(C)C)NC(=O)[C@H](CC(=O)O)NC(=O)[C@@H](NC(=O)[C@H](CO)NC(=O)[C@@H](NC(=O)[C@@H]1CCCN1C(=O)[C@@H]1CCCN1C(=O)CNC(=O)[C@@H]1CCC(=O)N1)[C@@H](C)CC)[C@@H](C)CC)[C@@H](C)CC)C(=O)N[C@@H](CCC(=O)O)C(=O)N[C@@H](CCCCN)C(=O)N[C@@H](CCC(N)=O)C(=O)N[C@@H](CCC(=O)O)C(=O)N[C@@H](CCCCN)C(=O)N[C@@H](CCC(=O)O)C(=O)N[C@@H](CCCCN)C(=O)N[C@@H](CCC(N)=O)C(=O)N[C@@H](CCC(N)=O)C(=O)N[C@@H](C)C(=O)N[C@H](C(=O)N[C@H](C(=O)N[C@@H](CC(N)=O)C(=O)N[C@@H](C)C(=O)N[C@@H](CCCNC(=N)N)C(=O)N[C@@H](CC(C)C)C(=O)N[C@@H](CC(C)C)C(=O)N[C@@H](C)C(=O)N[C@H](C(=O)N[C@H](C(N)=O)C(C)C)[C@@H](C)O)[C@@H](C)O)[C@@H](C)O` [compound 21]: the figures for the EC50 on CRF2R and on CRF1R were 0.00846 µM and 0.908 µM, respectively.
Turning to `CC[C@H](C)[C@H](NC(=O)[C@@H](NC(=O)[C@H](CC(=O)O)NC(=O)[C@H](CC(C)C)NC(=O)[C@H](CC(C)C)NC(=O)[C@H](CC(C)C)NC(=O)[C@H](CCCNC(=N)N)NC(=O)[C@H](CC(N)=O)NC(=O)[C@H](CC(N)=O)NC(=O)[C@H](C)NC(=O)[C@H](C)NC(=O)[C@H](CCC(N)=O)NC(=O)[C@H](CCC(N)=O)NC(=O)[C@H](CCCCN)NC(=O)[C@H](CCC(=O)O)NC(=O)[C@H](CCCCN)NC(=O)[C@H](CCC(=O)O)NC(=O)[C@H](CCC(N)=O)NC(=O)[C@H](CCCCN)NC(=O)[C@H](CCC(=O)O)NC(=O)[C@@H](NC(=O)[C@H](CCC(=O)O)NC(=O)[C@@H](NC(=O)[C@H](CCSC)NC(=O)[C@H](CCCCN)NC(=O)[C@H](CCCNC(=N)N)NC(=O)[C@H](CC(C)C)NC(=O)[C@H](CC(C)C)NC(=O)CNC(=O)[C@@H](NC(=O)[C@H](CO)NC(=O)[C@H](CC(C)C)NC(=O)[C@H](CC(=O)O)NC(=O)[C@@H](NC(=O)[C@H](CO)NC(=O)[C@@H](NC(=O)[C@@H]1CCCN1C(=O)[C@@H]1CCCN1C(=O)CNC(=O)[C@@H]1CCC(=O)N1)[C@@H](C)CC)[C@@H](C)CC)[C@@H](C)CC)[C@@H](C)CC)[C@@H](C)CC)[C@@H](C)O)C(N)=O` [compound 25], the EC50 at CRF2R is 0.081 µM; at CRF1R, 0.677 µM.
The corresponding values for `CC[C@H](C)[C@H](NC(=O)[C@@H](NC(=O)[C@H](CC(=O)O)NC(=O)[C@H](CC(C)C)NC(=O)[C@H](CC(C)C)NC(=O)[C@H](CC(C)C)NC(=O)[C@H](CCCNC(=N)N)NC(=O)[C@H](CC(N)=O)NC(=O)[C@H](CC(N)=O)NC(=O)[C@H](C)NC(=O)[C@H](C)NC(=O)[C@H](CCC(N)=O)NC(=O)[C@H](CCC(N)=O)NC(=O)[C@H](CCCCN)NC(=O)[C@H](CCC(=O)O)NC(=O)[C@H](CCCCN)NC(=O)[C@H](CCC(=O)O)NC(=O)[C@H](CCC(N)=O)NC(=O)[C@H](CCCCN)NC(=O)[C@H](CCC(=O)O)NC(=O)[C@@H](NC(=O)[C@H](CCC(=O)O)NC(=O)[C@@H](NC(=O)[C@H](CCSC)NC(=O)[C@H](CCCCN)NC(=O)[C@H](CCCNC(=N)N)NC(=O)[C@H](CC(C)C)NC(=O)[C@H](CC(C)C)NC(=O)[C@H](Cc1ccccc1)NC(=O)[C@@H](NC(=O)[C@@H]1CCCN1C(=O)[C@H](CC(C)C)NC(=O)[C@H](CC(=O)O)NC(=O)[C@@H](NC(=O)[C@H](CO)NC(=O)[C@@H](NC(=O)[C@@H]1CCCN1C(=O)[C@@H]1CCCN1C(=O)CNC(=O)[C@@H]1CCC(=O)N1)[C@@H](C)CC)[C@@H](C)CC)[C@@H](C)CC)[C@@H](C)CC)[C@@H](C)CC)[C@@H](C)O)C(N)=O` [compound 29] are 0.016 µM and more than 1 µM.

The values above are taken from patent US7192924B2, “Corticotropin releasing factor 2 receptor agonists” (priority 2002, dated 2007).
